Key:
[1] = test system: E. coli (ATCC 11775); format: cell-based, Escherichia coli; conditions: Mueller-Hinton Broth, 2 × 10^4 CFU/mL, 18 h at 37°C, visible turbidity, complete growth inhibition
Experimental: (§1) The bacterial strains E. coli (KACC 13821, ATCC 11775) and Staphylococcus aureus (KACC 10768, ATCC 25923), and the yeast strain Candida albicans (KCTC 7121, ATCC 14053) were purchased from the Korean Agricultural Culture Collection (KACC) and Korean Collection for Type Cultures (KCTC). Both bacteria and the yeast were cultivated overnight in tryptic soy broth (TSB; Difco, USA) at 200 rpm in a 37°C shaking incubator to the stationary phase. Bacteria were cultivated for 3 h in fresh TSB medium under the same condition to the log phase. The strains were stored with 15% glycerol at −70°C until use.
(§2) In addition, antimicrobial activities of the peptides were also tested by broth microdilution assays against E. coli, S. aureus, and C. albicans. Briefly, microbes were grown overnight in Mueller-Hinton Broth (MHB) to the onset of the stationary phase with shaking at 200 rpm. The cultures were diluted in fresh MHB to a final concentration of 2 × 10^4 CFU/mL. A stock solution of each peptide was prepared to a concentration of 640 μg/mL in 0.01% acetic acid, and was then serially diluted two-fold to reach a concentration of 10 μg/mL. […] The antimicrobial activities of the peptides were assessed by measuring the visible turbidity in each well of the plate after 18 h of incubation at 37°C. Minimum inhibitory concentrations (MICs) are expressed as a specific value that caused complete growth inhibition.

[2] = test system: S. aureus (ATCC 25923); format: cell-based, Staphylococcus aureus; conditions: Mueller-Hinton Broth, 2 × 10^4 CFU/mL, 18 h at 37°C, visible turbidity, complete growth inhibition
Experimental: as §1, §2

SMILES: CC[C@H](C)[C@H](NC(=O)CN)C(=O)NCC(=O)N[C@@H](C)C(=O)N[C@H](C(=O)N[C@@H](CC(C)C)C(=O)N[C@@H](CCCCN)C(=O)N[C@H](C(=O)N[C@@H](CC(C)C)C(=O)N[C@H](C(=O)N[C@H](C(=O)NCC(=O)N[C@@H](CC(C)C)C(=O)N1CCC[C@H]1C(=O)N[C@@H](C)C(=O)N[C@@H](CC(C)C)C(=O)N[C@H](C(=O)N[C@@H](CO)C(=O)N[C@@H](Cc1c[nH]c2ccccc12)C(=O)N[C@H](C(=O)N[C@@H](CCCCN)C(=O)N[C@@H](CCCNC(=N)N)C(=O)N[C@@H](CCCCN)C(=O)N[C@@H](CCCNC(=N)N)C(=O)N[C@@H](CCC(N)=O)C(=O)N[C@@H](CCC(N)=O)C(N)=O)[C@@H](C)CC)[C@@H](C)CC)[C@@H](C)O)[C@@H](C)O)C(C)C)C(C)C [Melittin, reference compound]
- Minimum Inhibitory Concentration (MIC) [1]: 8 µg/mL
- Minimum Inhibitory Concentration (MIC) [2]: 4 µg/mL

Reference: article PMC4864078, “De Novo Transcriptome Analysis and Detection of Antimicrobial Peptides of the American Cockroach Periplaneta americana (Linnaeus)” (PLoS ONE, 2016)
